The values below come from patent US11390661B2, “HCMV entry inhibitors” (priority 2016, dated 2022).

The subject of assay [1] is HCMV strain TB40/E. The assay can be described thus: Inhibition of infection of fibroblasts (HFFs), IE antigen immunofluorescence. Conditions: increasing concentrations, pre-incubated 2 h. Format: cell-based, Human cytomegalovirus. As for the experimental part:
For testing the inhibitory effect of antivirals or fusion proteins on HCMV, the respective inhibitors were diluted in MEM and mixed with infectious supernatants, the mixtures were incubated for 2 h at 37° C. before addition to the cells. For fibroblast infection the virus-inhibitor mixture was incubated on the cells for about 24 h. If endothelial cells were included in the experiment, all cells were supplied with their respective maintenance media after 2 h, and further incubated for 22 h.
Infection efficiencies were determined by immunofluorescence staining for viral proteins. For fixation and permeabilization the cells were incubated with 80% acetone for 5 min. For HCMV infected cells the immediate early proteins pUL122/123 were detected with a mouse monoclonal (clone E13, Argene) and visualized using a Cy3 conjugated goat anti-mouse secondary antibody (Jackson Immuno Research). HSV infected cultures were stained 6 h post infection for ICP0 using a mouse monoclonal (clone 11060, Santa Cruz) and goat anti-mouse AF488 (life technologies). DAPI was used to locate nuclei. Infection rates were determined by counting the number of cell nuclei positive for the respective viral protein, as well as the total number of nuclei per image. For each condition three images were evaluated. […]

Assay [2] deals with HCMV particles. The assay can be described thus: Binding of chimeric receptors (Fc-fusion proteins) to HCMV particles. Set-up: species or system Human cytomegalovirus. Conditions: particles pre-incubated with Fc-fusion protein, attached to cells on ice. The method, then: To assess the binding of Fc-Proteins to virus particles, HFFs were seeded at a density of 40,000 cells per well on IBIDI plates 1 day prior to infection. Virus preparations were pre-incubated with Fc-fusion proteins at a final concentration of 500 ng/ml for 2 h at 37° C. The virus/Fc-protein mixtures were incubated with the cells for 1.5 h on ice. Before fixation with 80% acetone, the cells were washed once with MEM. For staining of viral particles mouse hybridoma recognizing the abundant viral protein pp150 (generously provided by W. Britt, Sanchez 2000) used.
The inventors tested this by staining of adsorbed virus particles with the Fc-fusion proteins. […] Virus particles were stained for the capsid protein pp150 and bound Fc-fusion proteins.
The inventors analyzed the mode of inhibition by PDGFR-alpha-Fc. For this, the binding of different concentrations of the fusion protein was quantified by assessing the particle intensities after staining with anti-human antibody (FIG. 5). […] (FIGS. 4 and 5).

On to “EGFR-Fc: recombinant Fc-fusion protein obtained from R&D (344-ER-050), comparison chimera [reference compound]”, for which the “inhibitory potential of Fc chimeras on HCMV infection of HFFs” value in assay [1] is reported as “neither PDGFR-beta-Fc nor EGFR-Fc had an effect”. Moreover, the “binding of Fc-fusion protein to virus particles (anti-human antibody staining)” value in assay [2] is “visualized only those particles that were pre-treated with PDGFR-alpha-Fc”.
